AlphaSeq binding of Ab-95 light chain variants to a spike HR2 peptide

Target: peptide PDVDLGDISGINAS, taken from heptad repeat 2 (HR2) of SARS-CoV-2 spike.

Ab-95 is the parent antibody, in scFv form: VH, then three GGGGS repeats, then VL. The heavy chain is unchanged in all variants.
VH: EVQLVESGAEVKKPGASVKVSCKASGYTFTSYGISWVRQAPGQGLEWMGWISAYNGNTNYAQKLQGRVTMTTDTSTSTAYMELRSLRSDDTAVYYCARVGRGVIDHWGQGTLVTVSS
VL: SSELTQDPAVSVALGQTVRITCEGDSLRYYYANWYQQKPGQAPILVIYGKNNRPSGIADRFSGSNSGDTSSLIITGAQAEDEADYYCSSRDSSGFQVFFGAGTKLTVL

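The library (AAYL52) carries one to three amino acid substitutions per variant, with no insertions or deletions. AlphaSeq pools MATa yeast showing the antibodies with MATalpha yeast showing the peptide. Pairs that bind mate more often; barcode pairs of the diploids are counted by sequencing. Read counts were normalised to the haploid input and turned into Kd by a linear fit to BCL2-family pairs of known affinity, for each replicate. Each pool was mated in three replicate cultures.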

Variants are written as CDR1, CDR2 and CDR3 of the light chain (limits as in the source). Parent: EGDSLRYYYAN, GKNNRPS, SSRDSSGFQVF.
Values are log10 of the apparent Kd in nM; lower means stronger binding.
Averages over replicates are reported, and they cover detected replicates only.
An entry "n.d." has no value in the source: the pair was not observed among the diploids in that replicate. This suggests poor binding but is not conclusive.
For reference, the parent read 2.31 as the reference entry and 2.25 as a member of this library.
As a blank, each scFv also met three strains without target: over library AAYL52, 28% of these pairings were detected, typically at 3.91 and seldom below 2.90. Also given: how often the same scFv was detected with the empty control strains, with their mean in brackets.

CDR-L1	CDR-L2	CDR-L3	log10 Kd (nM) by replicate	log10 Kd (nM), mean	signal with controls
EIDSLRYYYAN	GKNNRPS	SSRDKSGFQSF	n.d. n.d. n.d.	n.d.	1 of 9 (4.13)
EGDSLRIYYAN	GKNLRPS	SSRDSSGFQVF	n.d. 3.76 4.30	4.03	3 of 9 (3.79)
EGDSLRYYYAN	RKWNRPE	SSRDSSGFQVF	n.d. 3.39 n.d.	3.39	1 of 9 (4.24)
EGDSLRYYYAN	TKNNRPS	SHRDSSGFMVF	n.d. n.d. n.d.	n.d.	0 of 9
DGDSLRYYYAN	GKNNRPS	ISRDSSGFQCF	n.d. 4.72 n.d.	4.72	0 of 9
EGDSLRYNEAN	GKNNRPS	SSRDSSGCQVF	1.80 1.94 1.37	1.70	4 of 9 (3.62)
EGDSLRYYHAN	GKNNRPS	SSRDSFGFQVF	3.24 2.88 3.05	3.05	5 of 9 (3.95)
EGDSLRYYYAP	AKNNRPS	SSRDSSGFQDF	4.41 3.88 n.d.	4.15	5 of 9 (4.27)
EGDSLRYYYAN	GKNNRPS	SSRDDSGKHVF	3.54 3.36 3.46	3.45	6 of 9 (3.80)
EGVSLRYYYAN	RKNNRPS	SSRDSSGQQVF	5.29 n.d. 3.62	4.45	2 of 9 (3.60)
EGDSLRYYYAN	GKNNRFS	SSRDSKKFQVF	n.d. 4.87 2.37	3.62	1 of 9 (3.86)
EGDSLRYTYAN	GYNNRPS	SSRDSSGNQVF	2.85 2.49 2.33	2.56	4 of 9 (3.80)
EGDSLRYYYAT	GKNNRAS	SSRDSSGFQNF	n.d. n.d. n.d.	n.d.	3 of 9 (3.49)
EDDSLRYYFAN	GKNNRPS	SSRDSSNFQVF	3.88 n.d. 3.23	3.56	6 of 9 (4.13)
RGDSLRYYYAN	GKNNRPS	SSRPSSGFQVF	2.42 2.91 1.98	2.44	2 of 9 (4.33)
EGDSERYYYAN	GKNNFPC	SSRDSSGFQVF	n.d. n.d. n.d.	n.d.	0 of 9
EGDSLHYYYAL	GKNNRMS	SSRDSSGFQVF	3.28 3.51 2.79	3.19	3 of 9 (4.11)
EGASLRYYHAN	GKNNRPS	ESRDSSGFQVF	1.77 1.79 1.30	1.62	2 of 9 (4.20)
EGDSLRYVYAN	GKNNRPS	SSRDSSRFQVF	2.46 2.17 1.87	2.16	4 of 9 (4.26)
EGESLRYYCAN	GKNNRPS	SSRDHSGFQVF	1.85 1.78 1.44	1.69	2 of 9 (3.83)
EHDSLRYYYAN	SKNNRPS	SSRDSSGAQVF	3.81 2.68 4.16	3.55	0 of 9
EGDSLRYYAAN	GKNNRPS	SSRDSLGFQVF	2.98 2.20 2.12	2.43	1 of 9 (3.72)
EGDSLIYYSPN	GKNNRPS	SSRDSSGFQVF	2.00 1.70 1.88	1.86	1 of 9 (4.70)
EGDSLRYYYAS	GKNNRPD	SSRDYSGFQVF	3.45 2.91 3.16	3.17	1 of 9 (4.83)
EGDSLRYYYAN	GKNNRPS	SSSDSSMFEVF	n.d. 5.28 n.d.	5.28	2 of 9 (4.11)
EGDSLRYYYTN	GKNNRPS	SSRDSSGFQHF	2.73 2.38 1.90	2.34	4 of 9 (3.99)
EGDSLRYYYEP	GKNNRPS	SSRDSSGFQLF	n.d. n.d. n.d.	n.d.	3 of 9 (3.78)
EGDSLRYRYAN	GKNYRPS	SSRDKSGFQVF	1.83 2.38 1.41	1.87	0 of 9
EGDSLRYYYAS	GKNARPS	TSRDSSGFQVF	5.16 3.09 n.d.	4.13	2 of 9 (4.40)
EGDSLRYAYAP	GKNNRPS	SSRLSSGFQVF	5.36 4.58 n.d.	4.97	3 of 9 (4.76)
EGDSLRYYYAN	TKNNRPS	SSRDVSNFQVF	2.66 3.24 n.d.	2.95	1 of 9 (3.97)
DGDSLRYYYAN	GKNNRPS	SSRDWSGFQVF	n.d. n.d. 3.99	3.99	0 of 9
EGDSLRYGYAN	GKNNRPS	SSRSSSGTQVF	1.06 0.74 0.39	0.73	3 of 9 (3.91)
EGDSLRAYYAN	GKSNRPS	SSRDLSGFQVF	4.14 n.d. 2.41	3.28	0 of 9
EGDSLRYYYGN	GKTNRPS	SSRCSSGFQVF	4.27 n.d. n.d.	4.27	1 of 9 (4.38)
EGDSLRYHYAN	GKPNRPV	SSRDSSGFQVF	4.05 3.71 3.75	3.84	2 of 9 (4.27)
EGDSLRYYYAN	GGHNRPS	SSRDSSGFQVI	2.34 2.38 2.17	2.29	0 of 9
EGDSLVYYYEN	GKNNRPS	ISRDSSGFQVF	n.d. n.d. n.d.	n.d.	0 of 9
EGDSLRYYYAN	GKLNRPA	SSYDSSGFQVF	n.d. n.d. n.d.	n.d.	0 of 9
EGDLLRAYYAN	GKNNRPC	SSRDSSGFQVF	3.76 n.d. n.d.	3.76	0 of 9
FGDSLRYYYFN	GKNNRHS	SSRDSSGFQVF	2.17 2.00 2.13	2.10	2 of 9 (4.22)
EPDSLRYYYAN	GKNNRPD	SSRDSSGFCVF	5.43 3.71 4.22	4.45	4 of 9 (3.91)
EGDSLRYYYAN	GKNNRPS	NSRDESVFQVF	3.00 3.61 2.40	3.00	4 of 9 (3.44)
EGDSLRDYYAN	HFNNRPS	SSRDSSGFQVF	n.d. n.d. n.d.	n.d.	5 of 9 (4.02)
EGDSLKYYYAN	GINNRPS	SSRDSSGFQVF	2.94 n.d. 1.87	2.40	0 of 9
EGDSLRYRYAN	GVNNRPS	SSRDSQGFQVF	1.90 2.01 1.54	1.82	5 of 9 (4.30)
EGDSLRRYYAN	GCNNRPS	SSRDSSGCQVF	3.52 3.35 4.25	3.71	2 of 9 (3.75)
EGDSLRTYYAN	GKSNRPS	YSRDSSGFQVF	2.84 3.01 2.11	2.65	1 of 9 (4.40)
ETDSLRYYYAN	GTNNRPS	SSRDESGFQVF	n.d. n.d. n.d.	n.d.	0 of 9
EGDSLRYYYAN	GENNRPS	SSRDSSGFQVG	2.45 2.33 1.77	2.18	6 of 9 (4.24)
EGDSLRYYYAN	GKNNRPS	SSRDSSRFQVF	3.76 5.08 4.69	4.51	4 of 9 (3.71)
EGDSLRYYYAN	GKNKRPY	SKRDSSGFQVF	n.d. 4.20 n.d.	4.20	5 of 9 (3.82)

Again, the first 3 entries without any signal:

CDR-L1	CDR-L2	CDR-L3	log10 Kd (nM) by replicate	log10 Kd (nM), mean	signal with controls
EIDSLRYYYAN	GKNNRPS	SSRDKSGFQSF	n.d. n.d. n.d.	n.d.	1 of 9 (4.13)
EGDSLRYYYAN	TKNNRPS	SHRDSSGFMVF	n.d. n.d. n.d.	n.d.	0 of 9
EGDSLRYYYAT	GKNNRAS	SSRDSSGFQNF	n.d. n.d. n.d.	n.d.	3 of 9 (3.49)

Reference: Engelhart et al. 2022, doi:10.1038/s41597-022-01779-4. File: FLAb, binding data.